In this assay the target is Glucagon-like peptide 1 receptor (Homo sapiens, UniProt P43220). Put plainly: Binding affinity to human GLP-1R assessed as association rate constant by SPR analysis. The conditions noted are these: filed as agonist.

By UniProt entry, the sequences of proteins in these tests, tags left out.
UniProt P43220, whole entry: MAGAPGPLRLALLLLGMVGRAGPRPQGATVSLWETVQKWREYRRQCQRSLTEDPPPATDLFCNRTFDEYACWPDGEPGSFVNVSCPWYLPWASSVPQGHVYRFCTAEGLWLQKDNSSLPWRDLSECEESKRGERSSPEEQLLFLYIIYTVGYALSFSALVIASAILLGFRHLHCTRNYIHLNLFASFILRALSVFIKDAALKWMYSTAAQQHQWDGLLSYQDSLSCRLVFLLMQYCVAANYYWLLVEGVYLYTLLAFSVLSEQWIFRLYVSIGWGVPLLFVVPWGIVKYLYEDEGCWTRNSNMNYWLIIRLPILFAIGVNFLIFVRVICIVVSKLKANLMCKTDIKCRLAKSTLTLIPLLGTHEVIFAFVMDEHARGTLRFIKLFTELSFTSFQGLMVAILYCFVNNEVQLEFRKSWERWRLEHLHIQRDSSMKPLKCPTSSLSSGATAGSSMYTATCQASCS

Regarding `N#Cc1ccc(COc2cccc(C3CCN(Cc4nc5ccc(C(=O)O)cc5n4C[C@@H]4CCO4)CC3)n2)c(F)c1`, the Ka was 3.49 10^3/M.s.

Values taken from ChEMBL document CHEMBL6096721, “Discovery of Selenium-Containing Derivatives as Potent and Orally Bioavailable GLP-1R Agonists” (J Med Chem, 2025).
